# Reference: US12281329B2, “Compositions and methods for immune cell modulation in adoptive immunotherapies” (Fate Therapeutics, Inc., priority 2016, dated 2025)
# Test system: T cells
# Test: In vitro T cell culture compound screen, flow cytometry for CCR7+CD62L+ cells
# Type: cell-based, human
# Conditions: in both viable CD4+ population and viable CD8+ population
# Description: In Vitro T Cell Culture. Fresh leukopaks (AllCells, Alameda, CA) were obtained from healthy donors, from which T cells were negatively selected using the EasySep Human T cell Enrichment Kit (Stem Cell Technologies, Vancouver, Canada). The freshly isolated T cells were aliquoted and cryopreserved. On the day the screens were initiated, T cells were thawed and washed into X-Vivo 15 with 5% human AB serum, IL-2, pen/strep, and additional supplements. Cells were dispensed into flat-bottom 384-well plates at 5×10^5 cells/ml with anti-CD3/Anti-CD28 dynabeads (ThermoFisher, Waltham, MA) at a 3:1 bead-to-cell ratio. […]
# Flow Cytometry. […] Data acquisition was performed on a BD Fortessa X-20 (BD Biosciences) and data were analyzed using Treestar software (FlowJo, Ashland, OR) and Spotfire (Tibco, Boston, MA).
# These cells are characterized by expression of CCR7 and CD62L. Therefore, cells co-expressing both of these identifying markers were evaluated. Within the viable CD4+ population and viable CD8+ population, the percent of cells co-expressing CCR7 and CD62L was determined. […]
# The number of events in each of these gates relative to the number of absolute counting beads in each sample was calculated, defining a relative measure of the absolute number of naïve, stem cell memory, or central memory T cells within the CD4+ and/or CD8+ populations. […]
smiles,measurement,value
Oc1cccc(-c2nc(N3CCOCC3)c3oc4ncccc4c3n2)c1 [PI-103],number or ratio of cells co-expressing CCR7 and CD62L,increased
